From patent publication US6306876A, “4-[aryl(8-azabicyclo[3.2.1]octan-3-yl)]aminobenzoic acid derivatives” (dated 2001)
pKi: −log10 of the molar value.

Target: delta-opioid receptor (Rattus norvegicus, UniProt P33533)
Experiment: Rat Brain Delta-Opioid Receptor Binding Assay
Conditions: read-out: Delta K; rat forebrain homogenate, [3H]DPDPE, 25° C., pH 7.4

| Compound | pKi |
| --- | --- |
| CC(C)(C)OC(=O)c1ccc(N(c2ccccc2)C2CC3CCC(C2)N3CCc2ccccc2)cc1 (stereo not shown) | 5.00 |
| CCN(CC)C(=O)c1ccc(N(c2ccccc2)[C@@H]2C[C@H]3CC[C@@H](C2)N3Cc2ccc3c(c2)OCO3)cc1 | 8.40 |
| CCN(CC)C(=O)c1ccc(N(c2ccccc2)[C@H]2C[C@H]3CC[C@@H](C2)N3C2CCCCC2)cc1 | 8.70 |
| CCN(CC)C(=O)c1ccc(N(Cc2ccccc2)[C@H]2C[C@H]3CC[C@@H](C2)N3C)cc1 | 7.47 |
| COc1cccc(N(c2cccc(C(=O)N(C)c3cccc(F)c3)c2)C2CC3CCC(C2)N3)c1 (stereo not shown) | 7.61 |
| CCN(CC)C(=O)c1ccc(N(c2ccccc2)[C@H]2C[C@H]3CC[C@@H](C2)N3Cc2ccc3c(c2)OCO3)cc1 | 9.70 |
| C=CCN1C2CCC1CC(N(c1cccc(O)c1)c1cccc(C(=O)N(C)c3cccc(F)c3)c1)C2 (stereo not shown) | 9.00 |
| CCCCN(C)C(=O)c1ccc(N(c2ccccc2)C2CC3CCC(C2)N3CCc2ccccc2)cc1 (stereo not shown) | 8.40 |
| CCN(CC)C(=O)c1cccc(N(c2ccccc2)C2CC3CCC(C2)N3C)c1 (stereo not shown) | 5.17 |
| C=CCN1C2CCC1CC(N(c1cccc(OC)c1)c1cccc(C(=O)N(C)c3cccc(F)c3)c1)C2 (stereo not shown) | 7.37 |
